Experimental data: patent publication US9540362B2, “Sphingosine-1-phosphate receptor agonists, methods of preparing the same, and pharmaceutical compositions containing the same as an active agent” (LG LIFE SCIENCES LTD., priority 2013, dated 2017)

The chains behind the UniProt entries cited, without tags or fusion partners.
UniProt P21453, whole entry: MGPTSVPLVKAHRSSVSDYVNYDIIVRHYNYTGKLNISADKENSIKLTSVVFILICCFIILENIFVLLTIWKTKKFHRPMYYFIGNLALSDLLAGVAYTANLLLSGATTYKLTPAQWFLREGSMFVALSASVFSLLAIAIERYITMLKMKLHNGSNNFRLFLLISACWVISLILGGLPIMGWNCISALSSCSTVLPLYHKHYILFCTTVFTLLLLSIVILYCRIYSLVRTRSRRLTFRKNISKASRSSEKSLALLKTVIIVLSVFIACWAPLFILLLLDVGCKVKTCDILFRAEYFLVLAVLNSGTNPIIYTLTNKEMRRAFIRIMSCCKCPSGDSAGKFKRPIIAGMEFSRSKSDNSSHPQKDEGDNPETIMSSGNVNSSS

Biological target: human sphingosine-1-phosphate 1 receptor (S1P1 receptor) (Homo sapiens, UniProt P21453)
Experiment: Ca2+ inducing ability using CHO cells overexpressing human S1P1 receptor (Calcium 5 assay kit)
Assay type: cell-based
Conditions: CHO cells overexpressing human S1P1, calcium RFU; S1P 1 μM = 100%
Source text: Evaluation of Ca^2+ inducing ability of test compound using a cell line expressing human sphingosine-1-phosphate
CHO (Chinese hamster ovary) cells which overexpress human sphingosine-1-phosphate 1 receptor (S1P1 receptor) that react with sphingosine-1-phosphate (S1P) are used for a functional test method wherein an increase of calcium indicates a therapeutic efficacy of an agonist compound. CHO-K1 cells, which are used for preparing a stable cell line, show no change in the calcium concentration by S1P, and thus they are good for checking signals from human S1P receptors after transfecting each subtype of the cells with the receptors.
To prepare CHO cells which overexpress human S1P1˜S1P5, human clones for each subtype having HA at the N terminal residue (S1P1: EDG010TN00, S1P2: EDG020TN00, S1P3: EDG030TN00, S1P4: EDG060TN00, S1P5: EDG080TN00) were purchased from the Missouri S&T cDNA Resource Center and co-transfected with G-protein alpha subunit (G-alpha-16) into CHO-K1 cells. After separating cells by FACS (fluorescence-activated cell sorting, LK BioScience, JSAN) using HA-antibodies (MACS, Anti-HA-PE), they were selectively cultured in the medium with 10% FBS (Gibco, USA), 0.5 mg/mL Geneticin (Gibco) and 0.2 mg/mL Hygromycin B F12 (Gibco) to obtain the desired cells.
A calcium measurement kit (Calcium 5 assay kit, Molecular Devices) was used to select an agonist compound. […]

EC50: 3 nM
SMILES: CCCCCCCCc1ccc(CCC(N)(CO)CO)cc1 [FTY-720, Fingolimod, reference compound]
